Values of other authors in patent publication US10758484B2, “CED of SN-38-loaded micelles against brain tumor” (Nippon Kayaku Co., Ltd., priority 2014, dated 2020).

Details: cited from earlier work

With “7-ethyl-10-hydroxy-camptothecine [SN-38]” as the substance, how does the water solubility read?
Its water solubility is “water-insoluble”.
